Patent US9988381B2, “Five-member-heterocycle fused pyridine compounds, method of producing the same, and use thereof” (SHANGHAI INSTITUTE OF MATERIA MEDICA, CHINESE ACADEMY OF …, priority 2013, dated 2018)

System: human lung cancer EBC-1 xenograft
Experiment: Test IV: human non-small cell lung cancer EBC-1 xenograft growth in nude mice
Format: in vivo
Conditions: for mice exhibiting complete tumor regression at day 11: 100 mg/kg po; for inhibition against tumor growth of EBC-1 subcutaneous xenograft (in words): 50 and 100 mg/kg po daily, d21
Procedure: EBC-1 cells were implanted subcutaneously in the right axilla of nude mice at 5×10^6 cells per mouse, xenograft developed thereby was passaged in nude mice for 3 generations prior to use. Tumor tissue at rapid growth phase was taken, minced under sterile condition into pieces of about 1.5 mm^3, then implanted subcutaneously in the right axilla of nude mice.
Xenografted tumor diameters were measured twice per week, and body weights of the mice were measured at the same time. Tumor Volume (TV) was calculated by the following equation: TV=1/2×a×b^2, wherein a, b refers to the length and width, respectively. Based on the measurement, Relative Tumor Volume (RTV) was calculated by the following equation: RTV=Vt/V0, wherein V0 is the tumor volume measured when divided for administration (i.e., do), Vt is the tumor volume measured at each timepoint.

Compound | mice exhibiting complete tumor regression at day 18 (50 mg/kg po, day 18) | mice exhibiting complete tumor regression at day 11 | inhibition against tumor growth of EBC-1 subcutaneous xenograft (in words)
CC(C)N1CCC(n2cc(-c3cnc4cnn(S(=O)(=O)c5cnc6ccc(-c7cnn(C)c7)cn56)c4c3)cn2)CC1 [Example 145, 1-{(6-[(1-methyl)-4-pyrazolyl]-imidazo[1,2-a]pyridine)-3-sulfonyl}-6-{(1-[(1-isopropyl)-4-piperidinyl]}-4-pyrazolyl}-1-H-pyrazolo[4,3-b]pyridine] | two | two | very significant dose dependent inhibition
CN1CCN(C(=O)c2ccc(-c3cnc4cnn(S(=O)(=O)c5cnc6ccc(-c7cnn(C)c7)cn56)c4c3)cc2)CC1 [Example 142, 1-{(6-[(1-methyl)-4-pyrazolyl]-imidazo[1,2-a]pyridine)-3-sulfonyl}-6-[4-(4-methylpiperazine-1-carbonyl)phenyl]-1-H-pyrazolo[4,3-b]pyridine] | – | two | very significant dose dependent inhibition
